In PubChem BioAssay AID1645848:
Converted amounts (≈) assume the structure as drawn.

Settings: buffer; pH 7.4; 6.0 h; 150.0 µM

solubility kinetic [µg/mL] | SMILES
10.4 (≈ 25.4 µM) | Cc1cc(C)nc(NC(=S)N2CCN(Cc3ccc(C(F)(F)F)cc3)CC2)c1
< 1 | Cc1cn(-c2cc(NC(=O)c3ccc(C)c(Nc4nccc(-c5cccnc5)n4)c3)cc(C(F)(F)F)c2)cn1
